Results: article PMC4401318 (ACS Chemical Neuroscience, 2015)

Sequences of proteins named here, by UniProt entry; tags and fusion partners are left off. A change or cut given only in a name is not applied to a line headed by its entry.
UniProt P41146: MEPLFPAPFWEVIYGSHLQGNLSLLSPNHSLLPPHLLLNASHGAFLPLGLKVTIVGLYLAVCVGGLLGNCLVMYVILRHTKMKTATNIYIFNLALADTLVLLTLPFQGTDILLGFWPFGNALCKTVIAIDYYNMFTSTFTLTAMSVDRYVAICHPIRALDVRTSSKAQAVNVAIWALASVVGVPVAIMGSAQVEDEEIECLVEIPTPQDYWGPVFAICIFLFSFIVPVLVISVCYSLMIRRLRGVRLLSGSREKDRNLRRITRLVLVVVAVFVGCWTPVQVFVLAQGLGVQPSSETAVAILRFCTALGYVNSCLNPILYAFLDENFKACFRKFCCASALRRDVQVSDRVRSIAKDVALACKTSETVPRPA
UniProt P35372, whole entry: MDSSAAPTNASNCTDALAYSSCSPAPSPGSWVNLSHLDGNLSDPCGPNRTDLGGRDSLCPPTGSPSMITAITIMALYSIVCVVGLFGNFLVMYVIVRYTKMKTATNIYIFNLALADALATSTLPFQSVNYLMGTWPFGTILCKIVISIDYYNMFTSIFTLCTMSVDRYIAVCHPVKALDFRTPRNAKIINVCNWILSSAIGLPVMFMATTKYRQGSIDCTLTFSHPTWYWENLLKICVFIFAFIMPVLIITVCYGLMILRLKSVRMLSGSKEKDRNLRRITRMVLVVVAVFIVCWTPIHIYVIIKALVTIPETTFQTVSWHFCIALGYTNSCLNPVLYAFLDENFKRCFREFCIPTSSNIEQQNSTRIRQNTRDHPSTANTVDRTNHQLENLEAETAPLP
UniProt P41143, whole entry: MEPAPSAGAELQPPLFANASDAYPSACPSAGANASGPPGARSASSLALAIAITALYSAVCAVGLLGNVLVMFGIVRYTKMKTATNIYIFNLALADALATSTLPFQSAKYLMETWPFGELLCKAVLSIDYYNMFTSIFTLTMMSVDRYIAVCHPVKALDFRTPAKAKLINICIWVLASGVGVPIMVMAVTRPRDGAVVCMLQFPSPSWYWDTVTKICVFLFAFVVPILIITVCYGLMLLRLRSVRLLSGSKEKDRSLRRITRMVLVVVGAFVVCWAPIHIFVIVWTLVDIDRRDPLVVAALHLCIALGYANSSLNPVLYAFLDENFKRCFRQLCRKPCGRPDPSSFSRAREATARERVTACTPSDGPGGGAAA

Key:
NOP receptor = NOP receptor (Homo sapiens, UniProt P41146); assay: [35S]GTPγS binding stimulation; type: biochemical
MOP receptor [1] = molecular target: T1, MOP receptor (Homo sapiens, UniProt P35372); assay: Radioligand competition binding, MOP
MOP receptor [2] = molecular target: T1, MOP receptor; assay: biochemical
DOP receptor = DOP receptor (Homo sapiens, UniProt P41143); assay: [35S]GTPγS binding stimulation; type: biochemical

SMILES | EC50 (NOP receptor) [µM] | Ki (MOP receptor [1]) [µM] | EC50 (MOP receptor [2]) [µM] | EC50 (DOP receptor) [µM]
CC(C)[C@@H](CN1CCC(c2cccc(O)c2)CC1)NC(=O)[C@H]1Cc2ccc(O)cc2CN1 [Compound 6, (R)-7-Hydroxy-N-((S)-1-(4-(3-hydroxyphenyl)piperidin-1-yl)-3-methylbutan-2-yl)-1,2,3,4-tetrahydroisoquinoline-3-carboxamide] | > 10 |  |  | 
CC(C)[C@@H](CN1CCC(c2ccccc2)CC1)NC(=O)[C@H]1Cc2ccc(O)cc2CN1 [Compound 8, (R)-7-Hydroxy-N-((S)-3-methyl-1-(4-phenylpiperidin-1-yl)butan-2-yl)-1,2,3,4-tetrahydroisoquinoline-3-carboxamide] |  | 0.015 ± 0.00244 | > 10 | 
CC(C)[C@@H](CN1CC[C@@](C)(c2cccc(O)c2)[C@@H](C)C1)NC(=O)[C@H]1Cc2ccc(O)cc2CN1 [JDTic, (3R)-7-hydroxy-N-((1S)-1-{[(3R,4R)-4-(3-hydroxyphenyl)-3,4-dimethyl-1-piperidinyl]methyl}-2-methylpropyl)-1,2,3,4-tetrahydro-3-isoquinolinecarboxamide, reference compound] |  |  | > 10 | > 10
